Measurements published in paper PMC11547827, “Discovery of Cyclic Peptide Inhibitors Targeted on TNFα-TNFR1 from Computational Design and Bioactivity Verification” (Molecules, 2024).

Assays:
L929 cells = conditions: R1_CC4, 5-200 μM, 24 h, CCK-8, 450 nm, n = 3
Experimental: L929 cells were seeded in a 96-well plate at a density of 8000 cells per well and cultured for 24 h under standard conditions. Then, the liquid in the wells was discarded, and 100 µL of medium containing different concentrations of cyclic peptides was added. After incubation for 24 h, the liquid in the well was discarded, and the medium was replaced with CCK-8 working solution (100 μL RPMI 1640 medium containing 5% CCK-8) and incubated in the dark for 2 h. The absorbance of each well at 450 nm was detected with a microplate reader. The same operation was performed with wells not seeded with cells as a blank group to eliminate systematic errors. Cell viability was calculated according to the following formula:(7) Cell viability(%)=(ODtest−ODblank)/(ODcontrol−ODblank)×100%

[1] = test system: TNFα-mediated cytotoxicity in L929 cells; test: Neutralization of TNFα induced necrosis in L929 cells
Experimental: L929 cells were seeded at a density of 8000 cells/well in a 96-well plate and incubated for 24 h in RPMI 1640 with 10% FBS at 37 °C. The experiment was divided into a blank group, a control group, a positive control group, and an experimental group. […] Serially diluted α_CC8 was added to cells and incubated at 37 °C, 5% CO2 for 2 h initially, and then 50 μL 10 ng/mL human TNFα was added and incubated overnight (17 h). 1 μg/mL Etanercept was used as a positive control. Subsequently, 100 μL 5% CCK-8 was added per well, followed by incubation of 2 h. The control group consisted of normal cultured cells without TNFα stimulation, while the blank control group contained empty wells without cells. At last, cell viability was confirmed by measuring the absorbance of each well at 450 nm. Cell viability was calculated according to Formula (7). Data was analyzed with SPSSAU (https://spssau.com/, Accessed on 14 August 2023) using the paired t-test to compare the differences between the experimental and control groups.

CC(C)C[C@@H]1NC(=O)[C@H](Cc2c[nH]cn2)NC(=O)[C@H](CC(N)=O)NC(=O)[C@H](CCC(=O)O)NC(=O)[C@H](CO)NC(=O)[C@H](C)NC(=O)[C@H]([C@@H](C)O)NC(=O)[C@H](Cc2ccccc2)NC(=O)[C@H](CO)NC(=O)CNC(=O)[C@H](CO)NC(=O)[C@H](CCC(=O)O)NC(=O)[C@@H](N)CSSC[C@@H](C(=O)O)NC(=O)[C@H](Cc2c[nH]cn2)NC(=O)[C@H](CCCNC(=N)N)NC1=O [R1_CC4]
survival rate of L929 cells (L929 cells): exceeds 90%
inhibition of TNFα-mediated cytotoxicity (in words) ([1]; L929 cells): effectively inhibit the TNFα-mediated cytotoxicity; also recorded: improve cell viability significantly by inhibiting TNFα-mediated necrosis
concentration at which survival rate increased significantly ([1]; L929 cells, human TNFα 10 ng/mL, 17 h, CCK-8, n = 3): 90 µM
increase of cell survival rate ([1]; R1_CC4 90 μM, premixed with human TNFα 2 h, then 17 h on L929, n = 3): 11.6%

Entries after “also recorded” stand apart in the source; their conditions may differ.
